# Measured values published in ChEMBL document CHEMBL3862030, “Identification of the minimum PAR4 inhibitor pharmacophore and optimization of a series of 2-methoxy-6-arylimidazo[2,1-b][1,3,4]thiadiazoles” (Bioorg Med Chem Lett, 2016).
# Assays:
# [1] = biological target: T1, Proteinase-activated receptor 4 (Homo sapiens, UniProt Q96RI0); experiment: Antagonist activity at PAR4 in human platelets assessed as inhibition of activating peptide-induced PAC1 binding response preincubated for 20 mins followed by agonist addition for 20 mins by FITC-based flow cytometric analysis
# T1 sequence (Q96RI0 whole entry): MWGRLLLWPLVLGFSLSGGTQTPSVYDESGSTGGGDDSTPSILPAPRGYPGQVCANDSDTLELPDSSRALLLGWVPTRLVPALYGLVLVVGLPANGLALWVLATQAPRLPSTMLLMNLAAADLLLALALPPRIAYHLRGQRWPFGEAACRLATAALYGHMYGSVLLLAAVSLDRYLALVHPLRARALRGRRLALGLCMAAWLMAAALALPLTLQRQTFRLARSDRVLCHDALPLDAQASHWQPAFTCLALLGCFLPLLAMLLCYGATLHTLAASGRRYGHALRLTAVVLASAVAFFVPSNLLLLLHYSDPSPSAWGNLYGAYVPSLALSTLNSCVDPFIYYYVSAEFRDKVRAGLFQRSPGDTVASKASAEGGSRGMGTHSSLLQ
# Method in brief: (§1)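 Human platelets were activated with 200 μM PAR4-AP. The read-outs were PAC-1 binding and P-selectin exposure, measured by flow cytometry. IC50 and pIC50 were taken from concentration–response curves, n=3, mean±SEM.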
# [2] = biological target: T1, Proteinase-activated receptor 4; experiment: Antagonist activity at PAR4 in human platelets assessed as inhibition of gamma-thrombin-induced PAC1 binding response preincubated for 20 mins followed by agonist addition for 20 mins by FITC-based flow cytometric analysis
# Method in brief: (§2)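 Human platelets were stimulated with γ-thrombin at 100 nM. Activation was read by flow cytometry as PAC-1 binding and P-selectin surface expression. IC50 and pIC50 were derived from concentration–response data, n=3, reported as mean±SEM.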
# [3] = biological target: T1, Proteinase-activated receptor 4; experiment: Antagonist activity at PAR4 in human platelets assessed as inhibition of activating peptide-induced P-selectin activation; method in brief: as §1
# [4] = biological target: T1, Proteinase-activated receptor 4; experiment: Antagonist activity at PAR4 in human platelets assessed as inhibition of gamma-thrombin-induced P-selectin activation; method in brief: as §2
Structure (SMILES),IC50 ([1]; read-out: IC50) [nM],IC50 ([1]; read-out: pIC50 (converted)) [nM],IC50 ([2]; read-out: IC50) [nM],IC50 ([2]; read-out: pIC50 (converted)) [nM],IC50 [3] [nM],IC50 [4] [nM]
COc1nn2cc(-c3cccc(C(F)(F)F)c3)nc2s1,36.3,–,1310,–,–,–
COc1nn2cc(-c3ccc(Cl)c(Cl)c3)nc2s1,28.5,–,1460,–,–,–
COc1nn2cc(-c3ccc(Cl)cc3)nc2s1,39.5,–,621,–,286,621
COc1nn2cc(-c3ccc(F)c(C(F)(F)F)c3)nc2s1,–,–,1090,–,–,–

# Other lines, results leading:
IC50 ([1]; read-out: IC50) [nM],IC50 ([1]; read-out: pIC50 (converted)) [nM],IC50 ([2]; read-out: IC50) [nM],IC50 ([2]; read-out: pIC50 (converted)) [nM],IC50 [3] [nM],IC50 [4] [nM],Structure (SMILES)
27.7,26.9,246,229,26.9,352,COc1nn2cc(-c3ccc(OC(F)(F)F)cc3)nc2s1
15.6,–,–,–,11.2,398,COc1nn2cc(-c3ccc(C(F)(F)F)cc3)nc2s1
